{"sequences": {"note": "The chains behind the UniProt entries cited, without tags or fusion partners. Residues count along the entry.", "UniProt Q9GZT9, 177-426": "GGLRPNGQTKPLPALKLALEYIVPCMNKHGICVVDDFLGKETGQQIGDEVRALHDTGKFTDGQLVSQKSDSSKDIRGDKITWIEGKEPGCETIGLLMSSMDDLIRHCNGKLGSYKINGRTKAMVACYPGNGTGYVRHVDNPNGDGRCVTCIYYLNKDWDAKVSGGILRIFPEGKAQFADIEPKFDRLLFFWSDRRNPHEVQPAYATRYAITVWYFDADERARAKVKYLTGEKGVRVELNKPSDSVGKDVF"}, "source": "paper PMC3525482", "about": "(Journal of inorganic biochemistry, 2012)", "target": "PHD2 (Homo sapiens, UniProt Q9GZT9)", "test": "PHD2 activity assay, Michaelis constant for αKG", "format": "biochemical", "conditions": "read-out: KM (Michaelis constant for αKG), PHD2"}
{"smiles": "O=C(O)CCC(=O)C(=O)O", "note": "[αKG, alpha-ketoglutarate]", "values": [{"measurement": "Km", "result": "7 ± 2.5", "unit": "µM"}]}
